In US9221746B2, “Homo- and hetero-polyamino-acid derivatives of fullerene C60, method for producing same, and pharmaceutical compositions based on said derivatives” (priority 2011, dated 2015):

Test: Solubility of the product

## N-Fullerene γ-Aminobutyric Acid with β-Alanine of the Formula C60(H3){NH(CH2)3COO^−}3(NH3^+CH2—CH2—COOH)3 [Example 2]
CH3CN:H2O (1:1)
  solubility: incompletely soluble
DMF-H2O
  solubility: incompletely soluble
Dimethyl sulfoxide/water (1:200)
  solubility: soluble
